This passage reports activation results from PubChem BioAssay AID504692 (The Scripps Research Institute Molecular Screening Center, 2011).

Chains of the proteins cited; added tags and fusions are not shown.
UniProt P47898, whole entry, looked up: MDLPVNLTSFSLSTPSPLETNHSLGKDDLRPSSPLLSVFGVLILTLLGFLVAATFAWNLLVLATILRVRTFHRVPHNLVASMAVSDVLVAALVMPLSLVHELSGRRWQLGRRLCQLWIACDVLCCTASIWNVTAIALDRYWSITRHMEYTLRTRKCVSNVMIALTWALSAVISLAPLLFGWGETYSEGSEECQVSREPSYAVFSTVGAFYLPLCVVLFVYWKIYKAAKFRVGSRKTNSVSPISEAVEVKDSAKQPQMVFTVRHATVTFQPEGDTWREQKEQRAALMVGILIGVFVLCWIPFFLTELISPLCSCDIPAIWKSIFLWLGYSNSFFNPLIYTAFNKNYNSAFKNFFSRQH

The structures appear in SMILES notation. The entries are a selection whose mix differs from that of the whole data set. Activity calls are given as the source filed them. Cut-off read from the data, not from the text of the source: active = activation mostly above about 9.5% (no sharp cut-off); inactive = mostly below about 7.6%.

This test deals with 5-hydroxytryptamine receptor 5A (Homo sapiens) (UniProt P47898). Nature of the test: HTR5A agonists in luminescence cell assay, primary screen, counter-screen for OPRM1-OPRD1 heterodimer agonist project, full-deck HTS (AID 504692).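 Note: 0% = cells with vehicle only and 100% = reference agonist.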 The settings on record: cell-based, at 9.3 µM, active compounds read high. A general note: The purpose of a counterscreen is to sort out artefacts and off-target activity.
For the compound `Nc1nonc1-c1nc2ccccc2n1CC(=O)N/N=C/c1ccc(-c2ccccc2C(=O)O)o1`, the activation is inactive: -2.02%.
The value for `Cc1cccc(OCC(O)Cn2c(=N)n(CCN3CCCCC3)c3ccccc32)c1` (stereo not drawn) was inactive: 1.62%.
In the case of `COc1ccc(CNc2nc3ccccc3n2CCN2CCCCC2)cc1` it was inactive: 1.82%; in that of `COCCN1CCn2c(nc3cc(NS(C)(=O)=O)ccc32)C1`, inactive: 5.9%.
The value for `O=C(Cn1cnc2ccccc21)N/N=C/c1ccco1` was inactive: 0.41%.
For `Cc1ccc2c(c1)C1CN(C)CCC1N2S(=O)(=O)c1ccc(C(C)C)cc1` (stereo not drawn), the activation was inactive: -4.84%.
For the compound `CCSc1nc2ccccc2n1CC(N)=O`, the activation is inactive: 7.51%.
The value for `COc1ccc(OC)c(CNc2nc3ccccc3n2CCN2CCCCC2)c1` was inactive: -1.25%; that for `O=C(Cn1cnc2ccccc21)Nc1ccccc1-c1ccccc1` was inactive: 8.3%.
On to `CCC(C)N(C(=O)Cn1c(Cl)nc2c1c(=O)n(C)c(=O)n2C)C1CCS(=O)(=O)C1` (stereo not drawn), for which the activation was inactive: 0.64%.
The value for `Brc1cccc(CNc2nc3ccccc3n2CCN2CCCCC2)c1` was inactive: -6.77%; that for `COC(=O)[C@H](Cc1ccccc1)NC(=O)Cn1cnc2c(NCc3ccccc3)ncnc21` was inactive: 0.45%; that for `Cn1c(=O)c2c(nc(CN3CCN(Cc4ccccc4)CC3)n2CCN2CCOCC2)n(C)c1=O` was inactive: -2.26%.
In the case of `CC(NC(=O)Cn1c(NCCO)nc2ccccc21)c1ccccc1` (stereo not drawn), the activation is inactive: -0.14%.
The value for `CCN(CC)CCn1c(=N)n(CC(O)c2ccc(OC)c(OC)c2)c2ccccc21` (stereo not drawn) was inactive: 3.96%.
Take `CC(C)C[C@H](NC(=O)N1CCn2c1nc1ccccc12)C(=O)NC1CC1`: the activation is inactive: 4.41%.
Consider `COc1ccc(NC(=O)CN(C)C(=O)Cn2cnc3c2c(=O)n(C)c(=O)n3C)cc1`, for which the activation was inactive: -7.15%.
Consider `O=C(c1cccs1)N1CCn2c1nc1ccccc12`, for which the activation was inactive: 2.22%.
With `c1ccc2c(c1)nc1n2CCN1CCN1CCCC1`, the activation is inactive: 2.36%.
For `Cn1c(=O)c2c(ncn2CC(=O)N2CCN(S(=O)(=O)c3ccccc3)CC2)n(C)c1=O`, the activation is inactive: 1.71%.
On to `CC1CCCC(C)N1C(=O)Cn1c(SCC(=O)Nc2ccc3c(c2)OCO3)nc2ccccc21` (stereo not drawn), for which the activation was inactive: -1.28%.
Consider `Cc1ccccc1Oc1ccc2c(c1)[C@@H]1C[C@H](N(C)C(=O)NC3CCCCC3)[C@H]([C@H](C)O)C(=O)N1CC2`, for which the activation was inactive: 0.07%.
The value for `CCOCCn1c(=O)c2c(nc3n2CCN3c2ccc(C)cc2)n(C)c1=O` was inactive: 3.89%.
For `N#CCCN1CCn2c1nc1ccccc12`, the activation was inactive: 0.45%.
The value for `C[C@@H](NC(=O)Cn1cnc2c(OCc3ccccc3)ncnc21)c1cccc2ccccc12` was inactive: -1.95%; that for `COc1ccc(OCC(O)Cn2c(=N)n(CCN3CCCCC3)c3ccccc32)cc1` (stereo not drawn) was inactive: 2.66%.
On to `Cn1c(=O)c2ncn(CC(=O)N/N=C/c3ccco3)c2n(C)c1=O`, for which the activation was inactive: -1.13%.
Consider `O=C(Cn1cnc2c(OCc3ccccc3)ncnc21)NCC1CCCO1` (stereo not drawn), for which the activation is inactive: 0.98%.
`O=P(Nc1nccs1)(c1ccccc1)c1ccccc1`: the activation is inactive: 0.33%.
In the case of `Cn1c(=O)n(CC(=O)N2CCOCC2)c2ccccc21` it was inactive: -2.25%; in that of `c1ccc(CNc2nc3ccccc3n2CCN2CCOCC2)nc1`, inactive: -0.47%; in that of `CC(C)C(=O)NC(Sc1ccccc1)C(Cl)(Cl)Cl` (stereo not drawn), inactive: 0.11%.
The value for `CC(/C=N/NC(=O)Cn1cnc2c1c(=O)n(C)c(=O)n2C)=C\c1ccccc1` was inactive: 3.62%; that for `CCC(C(=O)NC1CCCCC1)n1c(SCc2cccc(F)c2)nc2ccncc21` (stereo not drawn) was inactive: 0.96%.
In the case of `CC(C)C[C@H](NC(=O)N1CCn2c1nc1ccccc12)C(=O)N[C@H](Cc1ccccc1)C(=O)O` it was inactive: -3.11%; in that of `CC(C)c1ccccc1NC(=O)Cn1c(-c2ccccc2Cl)nc2ccccc21`, inactive: -1.41%; in that of `CCc1ccc(NC(=O)Cn2cnc3c(=O)n(C)c(=O)n(C)c32)cc1`, inactive: -1.01%.
As to `CCS(=O)(=O)c1nc2ccccc2n1CC(=O)N1CCCCC1`, the activation was inactive: 6.35%.
For `CCOC(=O)Cn1c(=O)oc2cc(S(=O)(=O)N3CCn4c3nc3ccccc34)ccc21`, the activation was inactive: 5.29%.
In the case of `CC(C)[C@H](NC(=O)N1CCn2c1nc1ccccc12)C(=O)N[C@@H](Cc1ccccc1)C(=O)O` it was inactive: 5.92%.
In the case of `Cc1ccc(-c2csc(N3CCC[C@@H]3C(=O)NCCn3c(-c4ccncc4)nc4ccccc43)n2)cc1` it was inactive: 17.7%; in that of `O=C(Cn1cnc2ccccc21)N/N=C/c1ccccc1`, inactive: -2.87%; in that of `COc1ccc(-c2ccc3c(c2)[C@@H]2C[C@H](N(C)C(=O)C(C)(C)C)[C@H]([C@H](C)O)C(=O)N2CC3)cc1`, inactive: 0.4%.
With `CN(C)Cc1ccc(-c2nc3cccc4c3n2CCNC4=O)cc1`, the activation was inactive: -4.2%.
The value for `CCCC(=O)Nc1ccc2c(c1)nc1n2CCN(C2CCCCC2)C1` was inactive: -2.05%; that for `Cc1ccc(NC(=O)Cn2c(/C=C/c3ccccc3)nc3ccccc32)cc1C` was inactive: -0.05%.
Take `CCN(C(=O)Cn1c(Cl)nc2c1c(=O)n(C)c(=O)n2C)C1CCCCC1`: the activation was inactive: 0.16%.
In the case of `O=C(Cn1c(CO)nc2ccccc21)Nc1cc(C(F)(F)F)ccc1N1CCOCC1` it was inactive: 4.18%.
The value for `CCNC(=O)Cn1cnc2c1c(=O)n(C)c(=O)n2C` was inactive: 4.69%; that for `O=C(CCCCCNC(=O)N1CCn2c1nc1ccccc12)NCc1ccccc1` was inactive: -2.25%.
The value for `CCN(CC)CCn1c(NCc2nc3ccccc3n2Cc2ccccc2)nc2ccccc21` was inactive: 1.21%; that for `CSc1nc2ccccc2n1CC(=O)Nc1cc(C(F)(F)F)ccc1N1CCOCC1` was inactive: -1.17%; that for `CCOc1ccc(CCNC(=O)Cn2c(-c3nonc3N)nc3ccccc32)cc1OCC` was inactive: -0.74%.
For `c1nnnn1CCn1cnnn1`, the activation was inactive: -1.83%.
In the case of `CCC(=O)Nc1cccc(C(=O)/C=C/c2ccccc2)c1` it was inactive: -1.04%.
Take `CCN(CC)C(=O)CSc1nc2ccccc2n1CC(=O)N1CCN(c2ccccc2OC)CC1`: the activation was inactive: -1.83%.
In the case of `CC(=O)c1ccc(N2CC2c2ccncc2)cc1` (stereo not drawn) it was inactive: -2.93%.
Turning to `O=C(Cn1c(SCC(=O)N2CCCc3ccccc32)nc2ccccc21)N1CCCC1`, the activation is inactive: 2.58%.
The value for `N#C/C(=C\c1ccc(N(CCBr)CCBr)cc1)C(N)=O` was inactive: 6.33%; that for `Cc1ccc2c(c1)C1CN(C)CCC1N2S(=O)(=O)c1cccc(F)c1` (stereo not drawn) was inactive: 2.18%; that for `O=C(Cn1cnc2ccccc21)N/N=C/C(Br)=C/c1ccccc1` was inactive: 2.02%.
The value for `Cn1c(=O)c2c(ncn2CC(=O)N/N=C/C(Cl)=C/c2ccccc2)n(C)c1=O` was inactive: -1.61%; that for `CC(NC(=O)CCCCCNC(=O)N1CCn2c1nc1ccccc12)c1ccccc1` (stereo not drawn) was inactive: -1.7%.
In the case of `COC(=O)C1(C)COP(=O)(NCc2ccccc2)OC1` (stereo not drawn) it was inactive: -1.6%; in that of `Cc1ccc2c(c1)C1CN(C)CCC1N2C(=O)COc1ccc(N(C)S(=O)(=O)c2cccs2)cc1` (stereo not drawn), inactive: 0.4%; in that of `O=C(CCCCCNC(=O)N1CCn2c1nc1ccccc12)N[C@H](C(=O)O)c1ccccc1`, inactive: 6.94%.
In the case of `COC(=O)c1ccccc1NC(=O)Cn1c(-c2nonc2N)nc2ccccc21`, the activation was inactive: 3.69%.
With `CC(C)(C)NC(=O)Cn1c(SCC(=O)Nc2nccs2)nc2ccccc21`, the activation is inactive: 0.25%.
The value for `Cc1ccccc1CN(C)C(=O)COC(=O)C(O)(c1ccccc1)c1ccccc1` was inactive: 5.36%.
Turning to `Cc1ccccc1Oc1ccc2c(c1)[C@@H]1C[C@H](N(C)C(=O)Nc3cc(Cl)cc(Cl)c3)[C@H]([C@H](C)O)C(=O)N1CC2`, the activation was inactive: 6.78%.
The value for `CCOc1ccc(S(=O)(=O)N(C)c2ccc(OCC(=O)N3c4ccc(C)cc4C4CN(C)CCC43)cc2)cc1` (stereo not drawn) was inactive: 1.57%.
As for `Cc1ccc2c(c1)C1CN(C)CCC1N2C(=O)Nc1cccc(Cl)c1` (stereo not drawn), the activation is inactive: -1.69%.
The value for `CN(C)CCn1c(N)nc2ccccc21` was inactive: 6.38%; that for `CN(C)C(=O)CSc1nc2ccccc2n1CC(=O)N1CCN(c2ccccc2)CC1` was inactive: -0.18%; that for `Cc1ccc2c(c1)C1CN(C)CCC1N2Sc1ccccc1[N+](=O)[O-]` (stereo not drawn) was inactive: -0.93%.
Turning to `C[C@H]1OP(=O)(Oc2ccccc2)C[C@@H]2O[C@@H]21` (stereo partly drawn), the activation was inactive: -1.55%.
As to `CCC(=O)Nc1nc2ccccc2n1CCN(C)C`, the activation was inactive: -0.66%.
For `C[C@@H]1C=CCP(=O)(Oc2ccccc2)O1` (stereo partly drawn), the activation is inactive: -1.65%.
The value for `O=C(CCNC(=O)N1CCn2c1nc1ccccc12)NCc1ccccc1Cl` was inactive: -5%.
The value for `C[C@H](O)[C@@H]1C(=O)N2CCc3ccc(-c4ccccc4)cc3[C@@H]2C[C@@H]1N(C)C(=O)c1ccc(C#N)cc1` was inactive: 0.92%; that for `O=C(C1COc2ccccc2O1)N1CCn2c(nc3ccccc32)C1` (stereo not drawn) was inactive: 1.32%.
`O=C(Cn1cnc2ccccc21)Nc1ccc(C(=O)O)cc1`: the activation was inactive: -5.23%.
For `CC(C)C[C@H](NC(=O)N1CCn2c1nc1ccccc12)C(=O)NCc1ccccc1`, the activation was inactive: 5.27%.
In the case of `COc1ccccc1OCC(O)Cn1c(=N)n(CCN2CCCCC2)c2ccccc21` (stereo not drawn) it was inactive: 1.71%; in that of `Fc1ccc2c(c1)nnn2C1CCN(Cc2nnnn2CCc2ccccc2)CC1`, inactive: -0.39%.
The value for `COCC(=O)N(C)[C@H]1C[C@H]2c3cc(Oc4ccccc4C)ccc3CCN2C(=O)[C@H]1[C@H](C)O` was inactive: -0.25%; that for `CC(C)[C@H](NC(=O)N1CCn2c1nc1ccccc12)C(=O)NCc1ccc(F)cc1` was inactive: -1.31%.
In the case of `COCCN1CCn2c(nc3cc(NC(=O)Cn4nc(C)c5ccccc5c4=O)ccc32)C1` it was inactive: -2.34%.
